From PubChem BioAssay (Tox21) come the findings set out here.

The list shows a part of the results, in another mix than the full data. Results filed as inconclusive are left out. The source made the active and inactive calls. The call rests on the fitted dose curve; in most records, active means well fitted activation curve with a large enough effect in the repeat runs; inconclusive means weak or mixed curves; inactive means flat fitted curve, though single readings scatter.
On the % scale 0 is the no-effect control and ±100 the full control effect; potency means the concentration at half of the fitted maximal effect.

The test can be described thus: A CellTox Green Cytotoxicity Assay to monitor cytotoxicity in HEK293 cells - 32 hour (AID 1224881). Further: nearly all actives have a fitted effect of over 40% in size. The following applies: CellTox Green fluorescence; series mostly up to 76.8 µM; cytotoxicity increase: at the top concentration. From the text:
National Center for Advancing Translational Sciences [NCATS]
NIH Chemical Genomics Center [NCGC]
U.S. Environmental Protection Agency [EPA]
National Institutes of Environmental Health Sciences [NIEHS]
National Toxicology Program [NTP]
Cell-based models are critical for drug discovery. Determining the natural cytotoxic effects resulting from test compounds is an essential research activity. A CellTox Green Cytotoxicity Assay to monitor cytotoxicity in real time of continues cell culture during 40 hours of the compound treatment was used to screen Tox21 10K library compounds in Hek293 cells. CellTox Green Cytotoxicity Assay is a nonlytic, homogeneous, biofluorescent method to measure cytotoxicity in cell culture after experimental manipulation. The assay system uses a proprietary asymmetric cyanine dye that is excluded from viable cells but preferentially stains the dead cell's DNA. […] Viable cells produce no appreciable increases in fluorescence. Therefore, the fluorescence signal produced by the binding interaction with dead cell DNA is proportional to cytotoxicity.
The mixture of Hek293 cell suspension and reagents were dispensed at 600cells/6 ul/well in 1536-well tissue culture treated black solid bottom plates using a Multidrop dispenser. After the assay plates were incubated at a 37 C/5% CO2 incubator for 5 hours, 23 nL of compounds dissolved in DMSO, positive and negative controls was transferred to the assay plate by a pintool work station. The plates were incubated at 37 C for 40 hours. The fluorescence intensity were measured at 0h, 8h, 16h, 24h, 32h and 40h time points using ViewLux plate reader during compound treatment.
As to `O=P(Cl)(Oc1ccccc1)Oc1ccccc1`, the “cytotoxicity increase” value was inactive: 3.51%.
For `CN(N=O)C(=N)N[N+](=O)[O-]`, the “cytotoxicity increase” value was inactive: 10.8%.
Take `O=[As]c1ccccc1` (stereo not drawn): the Potency was active: 616 nM.
Consider `CN(C(=O)Cc1ccccc1)[C@H]1CC[C@@]2(CCCO2)C[C@@H]1N1CCCC1`, for which the “cytotoxicity increase” value is inactive: 5.63% [at 35.3 µM].
Still for that read-out and setting: under `O=P(Cl)(Cl)c1ccccc1` stands inactive: -23.8%; under `Cc1cc([N+](=O)[O-])c(O)c([N+](=O)[O-])c1`, inactive: -12.8%; under `CCC(C)(OOC(C)(C)C)OOC(C)(C)C`, inactive: -11.7% [at 15.8 µM].
Still for that read-out and setting: under `O=C(Cl)OCCOC(=O)Cl` stands inactive: -7.51%.
For `CCCCO[P+](=O)OCCCC`, the Potency entry is “inactive”.
In the case of `CC(C)CCCCCCCOP(OCCCCCCCC(C)C)Oc1ccccc1`, the “cytotoxicity increase” value is inactive: 1.97%.
On the same count and under the same terms, under `O=[N+]([O-])c1ccc([N+](=O)[O-])cc1` stands inactive: -25%; under `CN(C(=O)Cc1cccc2occc12)[C@H]1CC[C@@]2(CCCO2)C[C@@H]1N1CCCC1`, inactive: -10.7%; under `O=[N+]([O-])c1ccc(S(=O)(=O)O)c([N+](=O)[O-])c1`, inactive: -2.05%.
On the same count and under the same terms, under `CCOP(=S)(CC)Sc1ccccc1` (stereo not drawn) stands inactive: 0.639%; under `CN(C(=O)Cc1ccc(Cl)c(Cl)c1)[C@H]1CC[C@@]2(CCCO2)C[C@@H]1N1CCCC1`, inactive: -17.7% [at 35.3 µM]; under `CCNC(C)Cc1ccc2c(c1)OCO2` (stereo not drawn), inactive: -1.89%.
Turning to `NC(=O)Nc1ccc([As](=O)(O)O)cc1`, the Potency entry was “inactive”.
Same read-out and setting: under `Cc1cc([N+](=O)[O-])cc([N+](=O)[O-])c1O` stands “inactive”.
Regarding `COP(=S)(Cl)OC`, the “cytotoxicity increase” value is inactive: -1.34%.
On the same count and under the same terms, under `CC(C)OP(=S)(OC(C)C)SCCNS(=O)(=O)c1ccccc1` stands inactive: -5.95%; under `O=[P+](Oc1ccccc1)Oc1ccccc1`, inactive: -4.33%; under `ClP(Cl)c1ccccc1`, inactive: -2.73%.
Still for that read-out and setting: under `CCCCC(CC)CO[P+](=O)OCC(CC)CCCC` (stereo not drawn) stands inactive: -13.1%; under `O=[p+]1oc2ccccc2c2ccccc21` (stereo not drawn), inactive: 16.6%.
On the same count and under the same terms, under `COC(=O)Cl` stands inactive: 1.18%.
Take `O=C(Cl)Oc1ccccc1`: the “cytotoxicity increase” value was inactive: -8.95%.
Still for that read-out and setting: under `CCCCOP(OCCCC)OCCCC` stands inactive: -0.383%.
Still for that read-out and setting: in the case of `CCOC(=O)Cl` it was inactive: -1.43%.
